# Experimental data from patent US7498029B2, “Photoimmunotherapies for cancer using combination therapies” (The General Hospital Corporation, priority 2001, dated 2009).
# Key:
# [1] = system: EGFR-negative NR6 cells; test: Cellular uptake of PICs, NR6 cells; assay type: cell-based, mouse; conditions: PICs with 4 BPD per antibody
# Description: Cellular uptake studies were conducted to evaluate targeting specificity of the PICs. Cells were plated in 2 ml of media in 35 mm tissue culture dishes at densities such that the cells reached ˜90% confluence at the end of a three-day growth period. Following an initial period of at least 14 to 20 hours, which allowed for cells to attach and begin dividing, incubation with PICs or free BPD was initiated by replacing the original 2 ml of media with 2 to 4 ml of media containing PIC or free BPD. From this point onward, cells were handled under low light conditions to avoid photosensitizing the cells or photobleaching the photosensitizer. […] Cell samples were then collected and analyzed. […] In order to quantitate the BPD content of the cell suspensions, the fluorescence emission intensities of the solubilized cell suspensions were compared to those of free BPD standards. Fluorescence measurements were performed as previously described. […] 0.5 ml of each solubilized cell sample was mixed with 2 ml of 1 M NaOH/1% SDS in a disposable fluorimeter cuvette to measure BPD content via fluorescence quantitation. […] The value of this parameter, which varied for the different cell lines, was measured in the following manner. First, 1 ml cell suspensions in culture medium, prepared from one set of control cell dishes, were counted using a hemacytometer. […]
# [2] = system: CHO-EGF cells; test: PDT/PIT phototoxicity, MTT assay, CHO-EGF cells; assay type: cell-based; conditions: CHO-EGFR cells; red light
# Description: This light was focused to a spot of 3.5 cm diameter, which corresponded to a power density of circa 40 mW/cm^2.
# To determine the survival fraction of cells after treatment, the 3-(4,5-dimethylthiazol-2-yl)-2,5-diphenyltetrazolium bromide (“MTT”) assay, which measured mitochondrial dehydrogenase activity, was used. Cells were incubated with 0.5 mg/ml MTT for 1 hour to measure its reduction by mitochondrial dehydrogenases.
substance,measurement,setting,value
C225 PIC,uptake by NR6 cells,[1],not by the EGFR-negative NR6 cells
same,light dose for 50% decrease in viability,[2],6.5 J/cm^2
